Laboratory results: patent publication US8927500B2, “Peptidomimetic macrocycles” (Aileron Therapeutics, Inc., priority 2012, dated 2015)

Columns and labels:
RKO cells = test: Cell viability assay (MTT), RKO; conditions: read-out: RKO EC50 (72 h)
p21 = test: P21 ELISA assay in SJSA1 cells; format: cell-based, Human; conditions: for p21 0.3 uM: 0.3 uM peptide; for p21 1 uM: 1 uM peptide; for p21 3 uM: 3 uM peptide; for p21 10 uM: 10 uM peptide; for p21 30 uM: 30 uM peptide

| SMILES | EC50 (RKO cells) | p21 0.3 uM (p21) | p21 1 uM (p21) | p21 3 uM (p21) | p21 10 uM (p21) | p21 30 uM (p21) |
| --- | --- | --- | --- | --- | --- | --- |
| CC[C@H](C)[C@H](NC(=O)[C@H](C)NC(=O)[C@H](C)NC(=O)[C@]1(C)CCCC=CCCCCCC[C@@](C)(NC(=O)[C@H](Cc2ccccc2)NC(=O)[C@@H](NC(=O)[C@H](CC(C)C)NC(=O)CN(C)C)[C@@H](C)O)C(=O)N[C@@H](CCC(=O)O)C(=O)N[C@@H](Cc2ccc(C(=O)O)cc2)C(=O)N[C@@H](Cc2c[nH]c3ccccc23)C(=O)N[C@@H](C)C(=O)N[C@@H](CCC(N)=O)C(=O)N[C@@H](CC2CCC2)C(=O)N1)C(=O)N[C@H](C)C(N)=O (single isomer, unassigned) [compound 440] | 15 to 30 µM |  |  |  |  |  |
| CC(C)C[C@H](NC(=O)CN(C)C)C(=O)N[C@H](C(=O)N[C@@H](Cc1ccccc1)C(=O)N[C@]1(C)CCCCCCC=CCCC[C@@](C)(C(=O)N[C@@H](CO)C(=O)N[C@@H](C)C(=O)N[C@@H](C)C(N)=O)NC(=O)[C@H](CC2CCC2)NC(=O)[C@H](CCC(N)=O)NC(=O)[C@H](C)NC(=O)[C@H](Cc2c[nH]c3ccccc23)NC(=O)[C@H](Cc2ccc(O)cc2)NC(=O)[C@H](CCC(=O)O)NC1=O)[C@@H](C)O [compound 435] | 15 to 30 µM |  |  |  |  |  |
| CC(=O)N[C@@H](CC(C)C)C(=O)N[C@H](C(=O)N[C@@H](Cc1ccccc1)C(=O)N[C@]1(C)CCCCCCC=CCCC[C@@](C)(C(=O)N[C@@H](C)C(=O)N[C@@H](C)C(=O)N[C@@H](C)C(=O)N[C@H](C)C(N)=O)NC(=O)[C@H](CC(C)C)NC(=O)[C@H](CCC(N)=O)NC(=O)[C@H](C)NC(=O)[C@H](Cc2c[nH]c3ccccc23)NC(=O)[C@H](Cc2ccc(O)cc2)NC(=O)[C@H](C)NC1=O)[C@@H](C)O (single isomer, unassigned) [compound 230] |  | 245.5 | 392 | 882 | 1549 | 2086 |
| CCCC[C@H](NC(=O)[C@H](Cc1cc(=O)oc2cc(OC)c(OC)cc12)NC(=O)[C@H](C)NC(=O)[C@]1(C)CCCC=CCCCCCC[C@@](C)(NC(=O)[C@H](Cc2ccccc2)NC(=O)[C@@H](NC(=O)[C@H](CC(C)C)NC(C)=O)[C@@H](C)O)C(=O)N[C@@H](C)C(=O)N[C@@H](Cc2ccc(O)cc2)C(=O)N[C@@H](Cc2c[nH]c3ccccc23)C(=O)N[C@@H](C)C(=O)N[C@@H](CCC(N)=O)C(=O)N[C@@H](CC(C)C)C(=O)N1)C(=O)N[C@@H](C)C(N)=O (single isomer, unassigned) [compound 419] |  | 58.28 | 97.36 | 221.65 | 1520.69 | 2187.94 |
| CCCC[C@H](NC(=O)[C@H](C)NC(=O)[C@H](Cc1cc(=O)oc2cc(OC)c(OC)cc12)NC(=O)[C@]1(C)CCCC=CCCCCCC[C@@](C)(NC(=O)[C@H](Cc2ccccc2)NC(=O)[C@@H](NC(=O)[C@H](CC(C)C)NC(C)=O)[C@@H](C)O)C(=O)N[C@@H](C)C(=O)N[C@@H](Cc2ccc(O)cc2)C(=O)N[C@@H](Cc2c[nH]c3ccccc23)C(=O)N[C@@H](C)C(=O)N[C@@H](CCC(N)=O)C(=O)N[C@@H](CC(C)C)C(=O)N1)C(=O)N[C@@H](C)C(N)=O (single isomer, unassigned) [compound 416] |  | 33.74 | 39.82 | 56.57 | 86.78 | 1275.28 |
| CC(=O)N[C@@H](CC(C)C)C(=O)N[C@H](C(=O)N[C@@H](Cc1ccccc1)C(=O)N[C@]1(C)CCCCCCC=CCCC[C@@](C)(C(=O)N[C@@H](CO)C(=O)N[C@@H](C)C(=O)N[C@@H](C)C(N)=O)NC(=O)[C@H](CC2CCC2)NC(=O)[C@H](CCC(N)=O)NC(=O)[C@H](C)NC(=O)[C@H](Cc2ccc3ccccc3c2)NC(=O)[C@H](Cc2ccc(O)cc2)NC(=O)[C@H](CCC(=O)O)NC1=O)[C@@H](C)O [compound 254] |  | 118 | 896 | 1774 | 3042 | 3035 |
